The values that follow are results of earlier work, collected in patent US20070287647A1, “Nail Polish Remover” (priority 2006, published 2007).

Each structure is given as a SMILES string.

For this series the following is noted: in vapor.

Turning to `CC(C)CON=O` [isobutyl nitrite], the inhalation toxicity level entry is on record as “about 600 ppm”.
